The values that follow come from patent publication US6673802B2, “Compounds specific to adenosine A3 receptor and uses thereof” (OSI Pharmaceuticals, Inc., priority 2000, dated 2004).

Chains of the proteins cited; added tags and fusions are not shown.
UniProt P0DMS8, whole entry: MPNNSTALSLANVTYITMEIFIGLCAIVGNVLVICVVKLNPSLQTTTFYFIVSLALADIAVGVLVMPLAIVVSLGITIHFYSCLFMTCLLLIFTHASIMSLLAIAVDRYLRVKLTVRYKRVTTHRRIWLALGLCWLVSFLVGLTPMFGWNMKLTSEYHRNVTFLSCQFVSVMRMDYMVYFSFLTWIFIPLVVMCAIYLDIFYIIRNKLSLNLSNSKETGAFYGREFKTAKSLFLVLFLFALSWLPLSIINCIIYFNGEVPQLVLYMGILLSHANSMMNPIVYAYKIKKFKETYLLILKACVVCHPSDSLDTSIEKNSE

Structures are written as SMILES. pIC50: −log10 of the molar value.

In the assay the target is human A3 receptor (Homo sapiens, UniProt P0DMS8). The assay can be described thus: Displacement binding, yeast membranes expressing hA3R. The note with it: read-out: IC50 hA3R.

One may read the pIC50 as the IC50 on a negative log10 scale, so that one unit is a factor of ten. With `C[C@H](Cc1ccccc1)Nc1ncnc2c1ncn2[C@@H]1O[C@H](CO)[C@@H](O)[C@H]1O` [(R)-PIA], the pIC50 was 7.63.
